From US12577217B2, “15-PGDH inhibitor” (KYORIN Pharmaceutical Co., Ltd., priority 2019, dated 2026)

Sequences of proteins named here, by UniProt entry; tags and fusion partners are left off.
UniProt P15428, whole entry: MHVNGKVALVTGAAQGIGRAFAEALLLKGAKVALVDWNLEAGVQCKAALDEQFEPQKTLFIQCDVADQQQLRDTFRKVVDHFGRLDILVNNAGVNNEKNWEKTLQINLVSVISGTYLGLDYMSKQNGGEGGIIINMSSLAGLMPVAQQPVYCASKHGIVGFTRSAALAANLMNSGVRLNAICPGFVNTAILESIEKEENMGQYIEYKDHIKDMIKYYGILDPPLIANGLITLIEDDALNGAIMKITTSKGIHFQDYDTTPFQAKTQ

target: recombinant human 15-PGDH (Homo sapiens, UniProt P15428); test: 15-PGDH enzyme inhibition test; conditions: read-out: IC50 Value; 4 nM recombinant human 15-PGDH, 30 μM PGE2, 1 mM NAD+, 60 minutes after starting the reaction
Description: 15-PGDH Enzyme Inhibition Test
A test compound and 4 nM recombinant human 15-PGDH (R&D Systems) were added, in 50 mM Tris-HCl (pH 8.0) containing 0.01% TWEEN 20 (Sigma) and 0.01% bovine gamma globulin (Sigma), to a 384-well Flat Bottom Black plate (Corning, 3820), and the resultant was allowed to stand still at room temperature for 12 minutes, and 30 μM PGE2 (Cayman Chemical) and 1 mM NAD+ (Sigma) were added thereto to start the reaction. 60 minutes after starting the reaction, measurement was performed using Synergy 2 (BioTeck) at an excitation wavelength of 340 nm and a fluorescence wavelength of 440 nm. Assuming that a fluorescence signal obtained with an assay buffer added instead of the test compound and NAD+ was 100% and that a signal obtained with NAD+ added was 0%, a concentration corresponding to 50% inhibition plotted on a concentration-reaction curve of the test compound was defined as an IC50 value. Incidentally, in the following tables, an IC50 value smaller than 10 nM was shown as +++, an IC50 value equal to or larger than 10 nM and smaller than 100 nM was shown as ++, and an IC50 value equal to or larger than 100 nM was shown as +.

SMILES	IC50 [nM]
CCCCN(C)C(=O)c1cnc2c(c1)OCCN2c1ccn2c(=O)n(C)nc2c1	< 10
CN1Cc2cc(N3CCOc4cc(C(O)C5CCCCC5)cnc43)ccc2C1=O (stereo not shown)	< 10
CC(C)(O)c1ccc(N2CCOc3cc(C(=O)N4CCCCC4)ccc32)cc1 [Example 10-1, (4-(4-(2-Hydroxypropan-2-yl)phenyl)-3,4-dihydro-2H-benzo[b][1,4]oxazin-7-yl)(piperidin-1-yl)methanone]	10 to 100
CN1Cc2cc(N3CCOc4cc(C(O)C5CCC(F)(F)CC5)cnc43)ccc2C1=O (stereo not shown)	< 10
